Test results: patent EP1205473A1, “VESAMICOL PIPERAZINE DERIVATIVES AND DRUGS CONTAINING THE SAME” (DAIICHI RADIOISOTOPE LABORATORIES, LTD., priority 1999, dated 2001)

Amino acid sequences for entries named in this document (tags omitted). A change or cut given only in a name is not applied to a line headed by its entry.
UniProt Q62666: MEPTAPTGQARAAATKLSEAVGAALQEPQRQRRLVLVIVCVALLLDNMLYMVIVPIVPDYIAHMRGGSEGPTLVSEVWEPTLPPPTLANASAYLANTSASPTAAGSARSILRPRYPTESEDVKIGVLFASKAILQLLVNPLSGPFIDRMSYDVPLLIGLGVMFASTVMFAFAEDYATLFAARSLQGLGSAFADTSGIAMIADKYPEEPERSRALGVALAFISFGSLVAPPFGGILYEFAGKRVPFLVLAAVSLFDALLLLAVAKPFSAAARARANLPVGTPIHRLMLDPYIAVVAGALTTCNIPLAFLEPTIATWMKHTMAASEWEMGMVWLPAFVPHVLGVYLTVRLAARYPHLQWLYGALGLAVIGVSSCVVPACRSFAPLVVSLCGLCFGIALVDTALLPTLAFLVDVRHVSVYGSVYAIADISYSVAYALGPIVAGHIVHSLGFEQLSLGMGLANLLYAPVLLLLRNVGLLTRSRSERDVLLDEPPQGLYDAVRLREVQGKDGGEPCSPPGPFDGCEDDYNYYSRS

Target: vesamicol receptors (Rattus norvegicus, UniProt Q62666)
Assay: Inhibition experiment: inhibition of binding of radioactive-iodine-labeled DRC140 to P2 fractions
Conditions: read-out: IC50 (nM) Average ± S.D, Table 7, Binding site names the inhibitor's own site

5,7-Kynurenic acid
IC50: > 5000 nM
